Experimental data as given in US11517729B2, “Integrated fiber microneedle device for drug and vaccine delivery” (University of Washington, priority 2018, dated 2022).

Assay: Release studies of integrated fiber microneedles in PBS
Assay type: physicochemical
Description: A small molecule drug, a model protein, and plasmid DNA were loaded into individual devices and the release kinetics of each were measured. These agents were loaded into an array of 420 needles, with a total device size of 4.2 cm^2. In this experiment, the needles were 350 μm in diameter and 800 μm tall. […] Each agent was successfully loaded into the fiber-microneedle system using a loading of 100 μg for the small molecule, […] for the protein, and 1.1 μg for the DNA. […] This plateau occurred at different percent release for the different agents. The small molecule plateaued at 70% release, the protein plateaued at 35% release, and the plasmid DNA plateaued around 80% release. […]
Data represent release from a single array of integrated fiber microneedles. Complete (100%) release was determined by TFV detected in release media after 84 days. […] Complete (100%) release was determined by the theoretical encapsulation of BSA in the iFMD. […] 100% release was determined by DNA detected in release media after 25 days.
Microneedle characterization: SEM imaging of electrospun fibers on the two-layer composite microneedle molds and completed microneedles was performed on a JEOL JSM7400F cold field emission scanning electron microscope. […] TFV content was determined by HPLC (Shimadzu Prominence LC20AD UV-HPLC) with a Phenomenex Luna 153 C18 column and LCSolutions software. […]

bovine serum albumin [BSA]
plateau of percent release (BSA from integrated fiber microneedles into PBS, BCA assay, 100% = theoretical encapsulation, two replicates): 35% | release profile (from integrated fiber microneedles (array of 420 needles) into PBS): sharp initial burst release followed by a plateau
